Data on one compound can be found in the NIST ThermoML archive (doi:10.1016/j.jct.2016.03.011).

Data set [1] in a line: Molar enthalpy of transition or fusion. The settings on record: Crystal; DSC.
For data set [2] the following is noted: Crystal; DTA.

Numbers after ± are expanded uncertainties.

`N=C(Nc1ccccc1)Nc1ccccc1` [1,3-diphenylguanidine]: the “Molar enthalpy of transition or fusion” value in data set [1] came to 5.38 ± 0.222 kcal/mol. For the same compound, the Normal melting temperature in data set [2] is 148.00 ± 1.1 °C.
